The nature of assay [1]: Relative binding to I2 and I1 imidazoline receptors […].
Assay [2] is described as follows: Relative binding to I2 imidazoline and alpha-2 adrenergic receptors […].

SMILES strings stand for the structures.

For the compound `c1ccc(C2CC2C2=NCCN2)cc1` (racemic), the results for the Ratio in assay [1] and in assay [2] were 0.8 and 17, respectively.
Turning to `c1ccc([C@H]2C[C@@H]2C2=NCCN2)cc1`, the Ratio in assay [1] was found to be 0.1; in assay [2], 2.
In the case of `c1ccc([C@@H]2C[C@H]2C2=NCCN2)cc1`, the Ratio in assay [1] worked out at 58; in assay [2] it was 20.

Source of the values: ChEMBL document CHEMBL1132147, “2-(2-Phenylcyclopropyl)imidazolines: reversed enantioselective interaction at I(1) and I(2) imidazoline receptors” (J Med Chem, 1999).
